{"sequences": {"note": "Protein sequences, listed by entry. Tags and fused reporters are not part of them.", "UniProt Q9H2X9, whole entry": "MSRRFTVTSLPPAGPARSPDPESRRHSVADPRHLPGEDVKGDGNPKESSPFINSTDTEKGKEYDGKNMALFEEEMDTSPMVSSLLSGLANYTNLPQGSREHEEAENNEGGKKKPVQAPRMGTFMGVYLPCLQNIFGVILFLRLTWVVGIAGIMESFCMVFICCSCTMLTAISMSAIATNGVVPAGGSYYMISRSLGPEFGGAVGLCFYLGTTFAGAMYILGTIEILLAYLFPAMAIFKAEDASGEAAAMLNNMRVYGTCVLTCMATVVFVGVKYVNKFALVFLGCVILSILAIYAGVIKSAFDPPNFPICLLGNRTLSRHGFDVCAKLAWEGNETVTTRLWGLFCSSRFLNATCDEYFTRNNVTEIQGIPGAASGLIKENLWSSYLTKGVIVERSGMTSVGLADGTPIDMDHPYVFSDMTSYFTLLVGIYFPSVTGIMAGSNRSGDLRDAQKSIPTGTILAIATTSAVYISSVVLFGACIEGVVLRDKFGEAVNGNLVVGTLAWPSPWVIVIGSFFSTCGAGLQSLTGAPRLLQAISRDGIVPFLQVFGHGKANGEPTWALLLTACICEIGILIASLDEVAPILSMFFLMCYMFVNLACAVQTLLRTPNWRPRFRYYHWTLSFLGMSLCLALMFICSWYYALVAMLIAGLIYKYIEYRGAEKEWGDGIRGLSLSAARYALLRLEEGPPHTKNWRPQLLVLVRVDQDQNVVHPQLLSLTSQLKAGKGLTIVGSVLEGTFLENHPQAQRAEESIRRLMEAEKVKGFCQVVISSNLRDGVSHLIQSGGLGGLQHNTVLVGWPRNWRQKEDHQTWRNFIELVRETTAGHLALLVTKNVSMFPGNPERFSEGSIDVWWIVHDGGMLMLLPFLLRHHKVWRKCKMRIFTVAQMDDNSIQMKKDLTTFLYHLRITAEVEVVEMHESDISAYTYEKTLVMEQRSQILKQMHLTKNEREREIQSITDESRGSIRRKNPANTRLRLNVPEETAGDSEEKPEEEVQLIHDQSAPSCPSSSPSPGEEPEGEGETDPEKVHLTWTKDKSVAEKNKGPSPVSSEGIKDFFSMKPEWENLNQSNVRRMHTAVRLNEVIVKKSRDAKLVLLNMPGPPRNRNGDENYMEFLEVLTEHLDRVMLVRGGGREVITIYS"}, "source": "PubChem BioAssay AID1456", "about": "(Vanderbilt High Throughput Screening Facility, 2008)", "note": "Only a part is listed here, and it is no random draw. The source made the active and inactive calls.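 Rule for the calls: active = thallium flux slope and its plate-corrected score both differing from the plate sample mean at a set confidence after two filtering rounds, in either direction; inactive = the rest.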", "data": [{"biological_target": "Solute carrier family 12 member 5 (Homo sapiens) (UniProt Q9H2X9)", "assay": "modulation of human KCC2 ion transport – cell-based, HEK293 KCC2, FluoZin-2 fluorescence, MLSMR, primary screen (AID 1456)", "settings": "KCC2 cells, thallium flux FluoZin-2 fluorescence; at 10 µM; active compounds read high", "values": [{"compound": "COc1ccc(NC2CCN(C(=O)OC(C)(C)C)CC2)cc1", "B-score": "inactive: 0.371"}, {"compound": "CN1CCN(CCOC(=O)C(O)(c2ccccc2)c2ccccc2)CC1", "B-score": "inactive: -0.0592"}, {"compound": "O=C(NCC1(N2CCOCC2)CCCCC1)c1cc(=O)[nH]c2ccccc12", "B-score": "inactive: 0.905"}, {"compound": "O=C(NCC1(N2CCCCC2)CCCCC1)c1cccc([N+](=O)[O-])c1", "B-score": "inactive: 1.56"}, {"compound": "CN1CCC(Nc2cccc(F)c2)CC1", "B-score": "inactive: 0.346"}, {"compound": "COc1ccc(CN(CCCl)CCCl)cc1Cl", "B-score": "inactive: 0.59"}, {"compound": "CN(C)c1cccc(C(=O)NCC2(N3CCCCC3)CCCCC2)c1", "B-score": "inactive: 0.715"}, {"compound": "CC(C)c1ccc(NC2CCN(C(=O)OC(C)(C)C)CC2)cc1", "B-score": "inactive: -0.0885"}, {"compound": "CCOC(=O)N1CCC(Nc2ccc(OC)cc2)CC1", "B-score": "inactive: 0.216"}, {"compound": "N#CC1(Nc2ccccc2)CCN(Cc2ccccc2)CC1", "B-score": "inactive: -0.0501"}, {"compound": "O=C(NCC1(N2CCOCC2)CCCCC1)c1cc2ccccc2o1", "B-score": "inactive: 0.73"}, {"compound": "COc1ccc(C(=O)NCC2(N3CCCCC3)CCCCC2)c(OC)c1OC", "B-score": "inactive: 0.334"}, {"compound": "Cc1ccc(OCC(C)C)c(CN(CCCl)CCCl)c1", "B-score": "inactive: 0.585"}, {"compound": "CCOc1ccc(C)cc1CN(CCCl)CCCl", "B-score": "inactive: 0.528"}, {"compound": "CN(C)c1ccc(C(=O)NCC2(N3CCCCC3)CCCCC2)cc1", "B-score": "inactive: -0.736"}, {"compound": "CCN1CCC(Nc2cccc(F)c2)CC1", "B-score": "inactive: -0.0641"}, {"compound": "CCCOc1ccc(C)cc1CN(CCCl)CCCl", "B-score": "inactive: -0.429"}, {"compound": "CCC(CO)(C(=O)OC1CN2CCC1CC2)c1ccccc1", "note": "(stereo not given)", "B-score": "inactive: 1.93"}, {"compound": "COc1cc(OC)cc(C(=O)NCC2(N3CCOCC3)CCCCC2)c1", "B-score": "inactive: 0.0254"}, {"compound": "CC(C)(C)OC(=O)N1CCC(Nc2ccccc2)CC1", "B-score": "inactive: -0.552"}, {"compound": "CCOc1ncccc1C(=O)NCC1(N2CCOCC2)CCCCC1", "B-score": "inactive: -0.455"}, {"compound": "O=C(OC1CN2CCC1CC2)C1c2ccccc2C=Cc2ccccc21", "note": "(stereo not given)", "B-score": "inactive: 1.1"}, {"compound": "N/C(=N\\O)c1c(N)no[n+]1[O-]", "B-score": "inactive: -0.856"}, {"compound": "COc1ccc(C(=O)NCC2(N3CCOCC3)CCCCC2)cc1OC", "B-score": "inactive: -0.0101"}, {"compound": "c1ccc(CN2CCC(Nc3ccccc3)CC2)cc1", "B-score": "inactive: 0.525"}]}]}
